Earlier results in PMC10846865, “The Blood-Brain Barrier: Implications for Experimental Cancer Therapeutics” (Annual review of cancer biology, 2023).

How the values were obtained:
[1] = system: ALK-positive lung cancer and CNS metastases; design: method as in Peters et al. 2017; conditions: patients with ALK-positive lung cancer and CNS metastases; ref Peters et al. 2017; cited from earlier work
[2] = system: HER2-positive breast cancer metastases; design: method as in Bendell et al. 2003, Leyland-Jones 2009; conditions: adjuvant setting; ref Bendell et al. 2003, Leyland-Jones 2009; cited from earlier work

Row | Compound | clinical response compared with crizotinib [1] | control of metastases outside the CNS [2] | incidence of CNS metastases [2]
1 | CCc1cc2c(cc1N1CCC(N3CCOCC3)CC1)C(C)(C)c1[nH]c3cc(C#N)ccc3c1C2=O [alectinib] | outperforming crizotinib |  | 
2 | trastuzumab |  | highly effective | did not decrease the incidence of CNS metastases
